Biological target: PD-L1 protein (F19-R238), refolded from E. coli (human, UniProt Q9NZQ7 19-238)
Experiment: SPR; BIAcore T100, CM5 chip; PD-1 immobilised, PD-L1 flowed; room temperature; HBS-EP (150 mM NaCl, 10 mM HEPES pH 7.4, 0.005% Tween-20); response units plotted against protein concentrations
Conditions: both partners purified

Binder	Kd [nM]
refolded N-loop truncated PD-1 (N33-R147, IgV domain) expressed in E. coli (domain or fragment, human PD-1, residues N33-R147 (IgV domain, without the N-loop), UniProt Q15116; not glycosylated; Cloned into pET-21a with NdeI and XhoI; also called PD-1 without N-loop (N33-R147)) NPPTFSPALLVVTEGDNATFTCSFSNTSESFVLNWYRMSPSNQTDKLAAFPEDRSQPGQDCRFRVTQLPNGRDFHMSVVRARRNDSGTYLCGAISLAPKAQIKESLRAELRVTER	4.06
N-loop truncated PD-1 (N33-R147, IgV domain) expressed in insect cells (domain or fragment, human PD-1, residues N33-R147 (IgV domain, without the N-loop), UniProt Q15116; secreted with an N-terminal gp67 signal peptide; also called N-loop truncated PD-1 (IgV), insect cell expressed; PD-1 protein without N-loop (N33-R147) from insect cells; source: Hi5 insect cells, baculovirus (pFastbac1, gp67 signal peptide), purified from supernatant (His-Trap HP, Superdex 200)) NPPTFSPALLVVTEGDNATFTCSFSNTSESFVLNWYRMSPSNQTDKLAAFPEDRSQPGQDCRFRVTQLPNGRDFHMSVVRARRNDSGTYLCGAISLAPKAQIKESLRAELRVTER	2.49
